{"sequences": {"note": "By UniProt entry, the sequences of proteins in these tests, tags left out.", "UniProt P42866, whole entry": "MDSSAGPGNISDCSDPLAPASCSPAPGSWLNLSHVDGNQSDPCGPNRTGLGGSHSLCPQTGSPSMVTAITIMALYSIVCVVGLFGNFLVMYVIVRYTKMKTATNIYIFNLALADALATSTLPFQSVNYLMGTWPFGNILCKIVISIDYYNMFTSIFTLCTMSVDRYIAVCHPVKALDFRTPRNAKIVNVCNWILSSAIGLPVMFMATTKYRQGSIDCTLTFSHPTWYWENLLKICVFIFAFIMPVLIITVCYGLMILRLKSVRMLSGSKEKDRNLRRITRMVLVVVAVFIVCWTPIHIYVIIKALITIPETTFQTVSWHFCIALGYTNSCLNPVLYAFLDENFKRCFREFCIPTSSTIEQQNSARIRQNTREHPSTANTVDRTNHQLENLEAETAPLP"}, "source": "patent US10556889B1", "about": "“Salvinorin derivatives” (Blue Sky Pharmaceuticals, LLC, priority 2018, dated 2020)", "key": {"uOR [1]": {"molecular_target": "T1, uOR (Mus musculus, UniProt P42866)", "test": "β-arrestin recruitment to uOR / receptor internalization", "type": "cell-based", "set-up": "expressed in transfected cells", "settings": "read-out: β-arrestin Recruitment EC50 ± SEM", "from_the_text": "The data provided in Tables 1A and 1B below were obtained using standard analytical techniques known to those skilled in the art. Such techniques are described in detail in C.\n[…] were transiently transfected (electroporation) with combinations of cDNA for hemagglutinin (HA-N terminus)-tagged uOR, beta-arrestin2 tagged with green fluorescent protein, mouse uOR tagged at the C terminus with yellow fluorescent protein and GRK-2. […] After addition of drug, cells were visualized using confocal microscopy. Multiple cells were recorded per dish after more than four separate transfection experiments—representative cells are shown in the manuscript.\nThe “β-arrestin Recruitment EC50±SEM” column in Table 2 below represents the degree to which each tested compound recruited beta-arrestin to interact with uOR. As will be appreciated by those skilled in the art, EC50 refers to the concentration of a drug which induces a response halfway between the baseline and maximum after a specified exposure time. In this instance, lower values indicate greater potency of the molecule, and this is […].\nAs will also be understood by those skilled in the art, “Max Fold Efficacy” refers to the maximum signal/background ratio that an agonist will induce or, conversely, that an antagonist will inhibit an agonist from inducing a response. […]"}, "uOR [2]": {"molecular_target": "T1, uOR", "test": "Agonist induced ERK 1/2 phosphorylation (efficacy and potency relative to DAMGO)", "settings": "read-out: Potency; amount required to produce the effect obtained with […] DAMGO or […] morphine; HEK-293 cells containing uOR"}}}
{"substance": "Met-Enkephalin [reference compound]", "values": [{"measurement": "EC50", "setting": "uOR [1]", "value": "0.441 ± 0.0388", "unit": "µM"}, {"measurement": "EC50", "setting": "uOR [2]", "value": 0.000674, "unit": "µM"}]}
